Results: ChEMBL document CHEMBL1137473, “Pyrazole-based cathepsin S inhibitors with improved cellular potency” (Bioorg Med Chem Lett, 2007)

Chains of the proteins cited; added tags and fusions are not shown.
UniProt P25774, whole entry: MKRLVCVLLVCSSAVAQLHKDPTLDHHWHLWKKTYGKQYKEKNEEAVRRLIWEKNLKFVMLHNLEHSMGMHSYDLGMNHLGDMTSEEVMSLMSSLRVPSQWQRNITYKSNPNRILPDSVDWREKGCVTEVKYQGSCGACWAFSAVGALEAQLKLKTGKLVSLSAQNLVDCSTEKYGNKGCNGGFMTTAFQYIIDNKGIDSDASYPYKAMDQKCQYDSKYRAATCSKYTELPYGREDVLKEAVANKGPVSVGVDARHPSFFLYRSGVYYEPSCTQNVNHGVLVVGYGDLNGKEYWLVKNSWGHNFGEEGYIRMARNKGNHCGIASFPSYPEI

Legend:
Cathepsin S [1] = biological target: T1, Cathepsin S (Homo sapiens, UniProt P25774); assay: Inhibition of human cathepsin S
Cathepsin S [2] = biological target: T1, Cathepsin S; assay: Inhibition of cathepsin S in human JY cells by invariant chain degradation assay; format: cell-based

Row | IC50 (Cathepsin S [1]) | IC50 (Cathepsin S [2]) | SMILES
1 | 0.021 µM | – | CS(=O)(=O)N1CCc2c(c(-c3ccc(C(F)(F)F)cc3)nn2CC(O)CN2CCC(c3c[nH]c4ccc(C#N)cc34)CC2)C1 (configuration not stated)
2 | 0.12 µM | 0.095 µM | CS(=O)(=O)N1CCc2c(c(-c3ccc(C(F)(F)F)cc3)nn2CC(O)CN2CCC(c3c[nH]c4cccnc34)CC2)C1 (configuration not stated)
3 | 0.058 µM | 0.025 µM | CS(=O)(=O)N1CCc2c(c(-c3ccc(C(F)(F)F)cc3)nn2CC(O)CN2CCC(c3c[nH]c4ccncc34)CC2)C1 (configuration not stated)
4 | 0.03 µM | 0.038 µM | CS(=O)(=O)N1CCc2c(c(-c3ccc(C(F)(F)F)cc3)nn2CC(O)CN2CCC(c3c[nH]c4cnccc34)CC2)C1 (configuration not stated)
5 | 0.072 µM | – | CC(=O)N1CCc2c(c(-c3ccc(C(F)(F)F)cc3)nn2CC(O)CN2CCC(c3c[nH]c4ccccc34)CC2)C1 (configuration not stated)
6 | 0.039 µM | 0.34 µM | CS(=O)(=O)N1CCc2c(c(-c3ccc(C(F)(F)F)cc3)nn2CCCN2CCC(c3c(C(=O)NCCN4CCOCC4)sc4cc(F)ccc34)CC2)C1
7 | 0.034 µM | – | CS(=O)(=O)N1CCc2c(c(-c3ccc(C(F)(F)F)cc3)nn2CC(O)CN2CCC(c3c[nH]c4c(Cl)cccc34)CC2)C1 (configuration not stated)
8 | 0.047 µM | 5.5 µM | CS(=O)(=O)N1CCc2c(c(-c3ccc(C(F)(F)F)cc3)nn2CCCN2CCC(c3c(C(=O)NCCN)sc4cc(F)ccc34)CC2)C1
9 | 0.037 µM | 1.2 µM | CCNC(=O)c1sc2cc(F)ccc2c1C1CCN(CCCn2nc(-c3ccc(C(F)(F)F)cc3)c3c2CCN(S(C)(=O)=O)C3)CC1
10 | 0.044 µM | – | CS(=O)(=O)N1CCc2c(c(-c3ccc(C(F)(F)F)cc3)nn2CC(O)CN2CCC(c3c[nH]c4ccc(Cl)cc34)CC2)C1 (configuration not stated)
11 | 0.029 µM | – | COc1ccc2[nH]cc(C3CCN(CC(O)Cn4nc(-c5ccc(C(F)(F)F)cc5)c5c4CCN(S(C)(=O)=O)C5)CC3)c2c1 (configuration not stated)
12 | 0.058 µM | – | Cc1ccc2[nH]cc(C3CCN(CC(O)Cn4nc(-c5ccc(C(F)(F)F)cc5)c5c4CCN(S(C)(=O)=O)C5)CC3)c2c1 (configuration not stated)
13 | 0.027 µM | 0.41 µM | CCOC(=O)c1ccc2[nH]cc(C3CCN(CC(O)Cn4nc(-c5ccc(C(F)(F)F)cc5)c5c4CCN(S(C)(=O)=O)C5)CC3)c2c1 (configuration not stated)
14 | 0.037 µM | – | Cc1[nH]c2ccc(Cl)cc2c1C1CCN(CC(O)Cn2nc(-c3ccc(C(F)(F)F)cc3)c3c2CCN(S(C)(=O)=O)C3)CC1 (configuration not stated)
15 | 0.027 µM | 0.86 µM | CS(=O)(=O)N1CCc2c(c(-c3ccc(C(F)(F)F)cc3)nn2CC(O)CN2CCC(c3c[nH]c4ncccc34)CC2)C1 (configuration not stated)
16 | 0.2 µM | 0.24 µM | CS(=O)(=O)N1CCc2c(c(-c3ccc(C(F)(F)F)cc3)nn2CC(O)CN2CCC(c3c[nH]c4cc[n+]([O-])cc34)CC2)C1 (configuration not stated)
17 | 0.054 µM | – | CS(=O)(=O)N1CCc2c(c(-c3ccc(Br)cc3)nn2CC(O)CN2CCC(c3c[nH]c4ccc(Cl)cc34)CC2)C1 (configuration not stated)
18 | 0.029 µM | – | CS(=O)(=O)N1CCc2c(c(-c3ccc(C(F)(F)F)cc3)nn2CC(O)CN2CCC(c3c[nH]c4cc(Cl)ccc34)CC2)C1 (configuration not stated)
